Tested on: MV4-11
Assay: Antiproliferative activity against human MV4-11 cells

- IC50: 11.3 nM
Compound: Cc1ncsc1-c1ccc(CNC(=O)[C@@H]2C[C@@H](O)CN2C(=O)[C@@H](NC(=O)COCCOCCOCCNC(=O)C[C@@H]2N=C(c3ccc(Cl)cc3)c3c(sc(C)c3C)-n3c(C)nnc32)C(C)(C)C)cc1

From ChEMBL document CHEMBL5223100, “Homobivalent, Trivalent, and Covalent PROTACs: Emerging Strategies for Protein Degradation” (J Med Chem, 2022)
